In this data set the test system is Vero cells. Nature of the data set: Cytotoxicity for Vero cells. It counts as cell-based. The note with it: one experiment in triplicate, means ± S.D.

Consider “α-Naphtyloxyphenylethyl Thiocyanate [Compound 24]”, for which the “Cytotoxicity ED50” value amounted to 70.1 ± 7.6 µM.
